According to PMC13408504, “Design, structure-based optimization and antiviral evaluation of potent inhibitors for the macrodomain Mac1 of SARS-CoV-2” (Nature Communications, 2026):
“Also recorded” adds a separate entry of the source.

Chains of the proteins cited; added tags and fusions are not shown. Lines headed by an entry give the natural chain unless they say otherwise; changes in a name come on top.
UniProt Q9BQ69: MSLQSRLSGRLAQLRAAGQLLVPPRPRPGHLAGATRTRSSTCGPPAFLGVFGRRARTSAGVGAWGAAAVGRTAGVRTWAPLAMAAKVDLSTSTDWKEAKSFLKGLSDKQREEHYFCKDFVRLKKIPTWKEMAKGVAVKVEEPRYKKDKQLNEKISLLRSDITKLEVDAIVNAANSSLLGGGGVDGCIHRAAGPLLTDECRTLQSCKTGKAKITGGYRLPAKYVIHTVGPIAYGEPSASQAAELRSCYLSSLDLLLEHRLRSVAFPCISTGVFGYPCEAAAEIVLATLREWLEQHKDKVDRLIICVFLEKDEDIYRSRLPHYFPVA
UniProt A1Z1Q3: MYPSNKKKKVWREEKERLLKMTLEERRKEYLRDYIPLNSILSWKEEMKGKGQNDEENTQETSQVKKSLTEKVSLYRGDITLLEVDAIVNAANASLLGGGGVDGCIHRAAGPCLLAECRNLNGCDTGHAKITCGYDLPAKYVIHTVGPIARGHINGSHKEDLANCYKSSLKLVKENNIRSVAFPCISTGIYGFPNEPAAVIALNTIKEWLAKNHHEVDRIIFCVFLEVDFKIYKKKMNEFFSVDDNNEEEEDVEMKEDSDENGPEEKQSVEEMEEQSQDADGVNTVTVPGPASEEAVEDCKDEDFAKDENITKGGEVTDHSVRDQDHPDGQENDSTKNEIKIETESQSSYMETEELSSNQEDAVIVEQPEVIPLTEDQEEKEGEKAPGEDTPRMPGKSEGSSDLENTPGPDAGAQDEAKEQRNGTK

Assays:
human MacroD1 = human MacroD1 (Homo sapiens, UniProt Q9BQ69); assay type: biochemical
human MacroD2 = human MacroD2 (Homo sapiens, UniProt A1Z1Q3); assay type: biochemical

With `COP(=O)(O)OP(=O)(O)OC[C@H]1O[C@@](C#N)(c2ccc3c(N)ncnn23)[C@H](O)[C@@H]1O` [compound 4, β-methyl-GS-441524-DP] the “Inhibition of human MacroD1 (in words)” value (human MacroD1) was “did not affect either enzyme; also recorded: no detectable inhibition” and the “Inhibition of human MacroD2 (in words)” value (human MacroD2) was “did not affect either enzyme; also recorded: no detectable inhibition”.
